From EPA's ToxRefDB 2 come the findings set out here.

Where only a bound is given, the exact number is not on record here.

In general, LOAEL refers to the lowest dose or exposure tested at which an adverse effect was seen. A word on the NOAEL: it is the highest tested level that showed no adverse finding.

The test system of data set [1] is rabbit. To be noted: Prenatal developmental toxicity study; new zealand white; Oral; Gavage/Intubation; dose end: 13 day; group: maternal; reproductive / reproductive performance / resorptions / resorptions + systemic / in life observation / clinical signs / hyperactivity + ….
In data set [2] the test system is rat. Particulars: Prenatal developmental toxicity study, sprague dawley, Oral, Gavage/Intubation, dose end: 12 day.
Data set [3] has as its system rat. Particulars: Prenatal developmental toxicity study, sprague dawley, Oral, Gavage/Intubation, dose end: 21 PND.
In data set [4] the test system is rabbit. To be noted: Prenatal developmental toxicity study, new zealand white, Oral, Gavage/Intubation, dose end: 19 day, group: maternal.
The subject of data set [5] is rat. To be noted: Prenatal developmental toxicity study, other, Oral, Gavage/Intubation, dose end: 19 GD.
In the next data set the test system is dog. Particulars: Chronic toxicity, beagle, Oral, Feed, dose end: 24 month.
Data set [6] deals with rabbit. To be noted: Prenatal developmental toxicity study, other, Oral, Gavage/Intubation, dose end: 18 GD.
For data set [7], the system named is mouse. To be noted: Prenatal developmental toxicity study, Oral, Gavage/Intubation, dose end: 12 day.
In data set [8] the test system is mouse. To be noted: Prenatal developmental toxicity study, Oral, Gavage/Intubation, dose end: 12 day. This is another data set of the same source.
Data set [9] has as its system rat. Particulars: Sub-acute repeat dose toxicity; Oral; Gavage/Intubation; dose end: 7 day; group: systemic; systemic / clinical chemistry / globulins / globulins + systemic / clinical chemistry / bilirubin / total bilirubin + systemic / organ ….
The mark [10] stands for this setting: group: developmental, systemic / in life observation / body weight / fetal weight.
[11] abbreviates: group: maternal, systemic / in life observation / body weight / body weight + systemic / in life observation / body weight / body weight gain + systemic / in….
Setting [12] is: systemic / in life observation / body weight / body weight + systemic / in life observation / clinical signs / body cold to touch + systemic….
The mark [13] stands for this setting: group: maternal, systemic / in life observation / clinical signs / anogenital staining.
Where [14] appears, read: group: maternal, systemic / in life observation / clinical signs / anogenital staining + reproductive / reproductive performance / resorptions / resorptions….
[15] abbreviates: group: cholinesterase, cholinesterase / cholinesterase / cholinesterase / cholinesterase (che).
[16] abbreviates: group: systemic, systemic / clinical chemistry / alkaline phosphatase (alp/alk) / alkaline phosphatase (alp/alk) + systemic / clinical chemistry / aspartate ….
The mark [17] stands for this setting: group: developmental, developmental / developmental malformation / bone / [other] + developmental / developmental malformation / bone / absent + developmental / ….
Where [18] appears, read: group: maternal, systemic / in life observation / mortality / mortality.
[19] abbreviates: group: maternal, systemic / in life observation / mortality / mortality + reproductive / reproductive performance / resorptions / resorptions + systemic / in….

In the case of `CNCc1cc(F)ccc1Oc1ccc(Cl)c(Cl)c1`, in the data set with rabbit [1], the LEL came out at 30 mg/kg/day, the LOAEL was above 75 mg/kg/day and the no-observed-adverse-effect level (NOAEL) was at least 75 mg/kg/day. In the data set on rat [2] (setting [10]), this compound had an LEL of 100 mg/kg/day, an LOAEL above 100 mg/kg/day and an NOAEL of at least 100 mg/kg/day. For the same compound, in the data set with rat [2] (setting [11]), the LEL came out at 50 mg/kg/day, the lowest observed adverse effect level (LOAEL) was above 100 mg/kg/day and the NOAEL was at least 100 mg/kg/day.

For the compound `CC(Cc1ccc(C(C)(C)C)cc1)CN1C[C@@H](C)O[C@@H](C)C1` (stereo partly drawn) [(2R,6S)-Fenpropimorph], the LOAEL came out at 40 mg/kg/day in the data set with rat [3] (group: developmental, developmental / offspring survival late / [other] / [other] + systemic / in life observation / clinical signs / grip strength) and 40 mg/kg/day in the data set with rat [3] (group: maternal, reproductive / reproductive performance / postimplantation loss / postimplantation loss + systemic / in life observation / body weight / …).

On to `CO/C=C(/C(=O)OC)c1ccccc1Oc1cc(Oc2ccccc2C#N)ncn1` [Azoxystrobin], for which, in the data set on rabbit [4] (setting [12]), the LOAEL is above 800 mg/kg/day and the no-observed-adverse-effect level (NOAEL) is at least 800 mg/kg/day. The LEL with rabbit [4] (systemic / in life observation / body weight / body weight + systemic / in life observation / clinical signs / no feces + systemic / in life…) worked out at 200 mg/kg/day.

As to `CCOc1nc(C(Cl)(Cl)Cl)ns1` [Etridiazole], the LEL is 75 mg/kg/day in the data set with rat [5] (setting [10]); 30 mg/kg/day in the data set with rat [5] (setting [13]); 25 mg/kg/day in the data set on dog (setting [15]); 25 mg/kg/day in the data set with dog (setting [16]); 45 mg/kg/day in the data set with rabbit [6] (setting [17]); 45 mg/kg/day in the data set on rabbit [6] (group: maternal, systemic / in life observation / mortality / mortality + reproductive / reproductive performance / resorptions / resorptions + reproductive…). Moreover, the LOAEL was 75 mg/kg/day with rat [5] (setting [10]); 30 mg/kg/day with rat [5] (setting [13]); above 25 mg/kg/day in the data set on dog (setting [15]); 25 mg/kg/day with dog (setting [16]); 45 mg/kg/day in the data set with rabbit [6] (setting [17]); 45 mg/kg/day with rabbit [6] (setting [18]). Moreover, the NEL worked out at 30 mg/kg/day in the data set with rat [5] (setting [10]); 10 mg/kg/day in the data set on rat [5] (setting [14]); 2.5 mg/kg/day in the data set with dog (setting [15]); 2.5 mg/kg/day in the data set on dog (setting [16]); 15 mg/kg/day in the data set on rabbit [6] (setting [17]); 15 mg/kg/day in the data set with rabbit [6] (setting [19]). Further, the NOAEL in the data set on rat [5] (setting [10]) was 30 mg/kg/day; with rat [5] (setting [14]) it was 10 mg/kg/day; in the data set on dog (setting [15]) it was at least 25 mg/kg/day; in the data set with dog (setting [16]) it was 2.5 mg/kg/day; with rabbit [6] (setting [17]), 15 mg/kg/day; with rabbit [6] (setting [19]), 15 mg/kg/day.

Turning to `CCc1nn(CCO)c(CC)c1Oc1cc(C#N)cc(C#N)c1` [Lersivirine], the LEL amounted to 350 mg/kg/day in the data set with mouse [7] (setting [10]); 350 mg/kg/day in the data set with mouse [7] (group: maternal, systemic / in life observation / food consumption / food consumption); 350 mg/kg/day in the data set with mouse [8] (group: developmental, developmental / developmental malformation / bone / incomplete ossification + systemic / in life observation / body weight / fetal weight); 150 mg/kg/day in the data set on mouse [8] (setting [18]); 150 mg/kg/day with rat [9]. Moreover, the lowest-observed-adverse-effect level (LOAEL) with mouse [7] (setting [10]) and with mouse [7] (setting [11]) was above 700 mg/kg/day in each case. Further, the NOAEL in the data set on mouse [7] (setting [10]) and with mouse [7] (setting [11]) was at least 700 mg/kg/day each time. In addition, the NEL in the data set on mouse [7] (setting [11]) is 150 mg/kg/day; in the data set with mouse [8] (setting [18]), below 150 mg/kg/day.
